{"source": "patent US12295937B2", "about": "“Psychoactive medicines and their use for treating psychiatric and neurological conditions and disorders” (Transcend Therapeutics, Inc., priority 2021, dated 2025)", "system": "168 GPCRs", "experiment": "β-arrestin GPCR screen (PathHunter / GPCRmax), agonist mode", "type": "cell-based", "settings": "1 and 10 micromolar (b480 prints mM)"}
{"compound": "CNC(C)C(=O)c1ccc2c(c1)OCO2", "note": "(centres unmarked) [Methylone, 3,4-methylenedioxy-N-methylcathinone]", "values": [{"measurement": "Agonist activity at 168 GPCRs (criterion >30% activity)", "value": "no significant agonist activity detected"}, {"measurement": "Agonist activity at 168 GPCRs (criterion >30% activity)", "setting": "listed as methylone", "value": "did not meet criteria for agonist or antagonist activity at any of the 168 GPCRs tested"}]}
